The record followed here is US11542293B2, “Sting modulator compounds, and methods of making and using” (Takeda Pharmaceutical Company Limited, priority 2017, dated 2023).

For the first test, the system named is THP1-Dual cells (ISG54 promoter Lucia luciferase reporter). The test can be described thus: THP-1 Dual Lucia Reporter Gene Assay. The conditions noted are these: Homo sapiens, THP1-Dual, 20 h, Lucia luciferase signal induction, 20 hours at 37° C., read-out: Cellular THP 1 EC50. Type of test: cell-based, human. As for the experimental part: THP1-Dual™ cells (InvivoGen #thpd-nfis) were derived from the human THP-1 monocyte cell line by stable integration of the Lucia luciferase gene, a secreted luciferase reporter gene, under the control of an ISG54 (interferon-stimulated gene) minimal promoter in conjunction with five interferon (IFN)-stimulated response elements. […] The cell plates were dosed with 62.5 nL of the testing compounds, and then incubated at 37° C. for 20 hours. At the end of the incubation, 15 μL/well of the QUANTI-Luc™ (InvivoGen #rep-q1c1) were added, and luminescence was measured immediately using the LeadSeeker.
Compound concentration versus percent signal induction curves were fitted to generate EC50 values.
(In general: In a reporter assay the amount or activity of a reporter protein is the signal.)
Turning to `Nc1nc2c(ncn2[C@@H]2O[C@@H]3COP(=O)(S)O[C@H]4C[C@H](Oc5ccncn5)C[C@@H]4COP(=O)(S)O[C@@H]2[C@@H]3OCC(F)(F)F)c(=O)[nH]1` (single isomer, unassigned) [Compound I-32a], the EC50 lay within 1 to 10 µM. On the same count and under the same terms, to `Nc1nc2c(ncn2[C@@H]2O[C@@H]3COP(=O)(O)O[C@@H]4[C@@H](COP(=O)(O)O[C@@H]2[C@@H]3O)C[C@@H](Nc2ccncn2)[C@@H]4O)c(=O)[nH]1` [Compound I-7, 2-amino-9-[(5R,7R,8R,12aR,14R,15S,15aR,16R)-2,10,15,16-tetrahydroxy-2,10-dioxido-14-(pyrimidin-4-ylamino)decahydro-5,8-methanocyclopenta[1][1,3,6,9,11,2,10]pentaoxadiphosphacyclotetradecin-7-yl]-1,9-dihydro-6H-purin-6-one] belongs over 25 µM; to `Nc1nc2c(ncn2[C@@H]2O[C@@H]3COP(=O)(O)O[C@H]4C[C@H](Nc5ncnc6scnc56)C[C@@H]4COP(=O)(O)O[C@@H]2[C@@H]3O)c(=O)[nH]1` [Compound I-26, 2-amino-9-[(5R,7R,8R,12aR,14R,15aS,16R)-2,10,16-trihydroxy-2,10-dioxido-14-([1,3]thiazolo[5,4-d]pyrimidin-7-ylamino)decahydro-5,8-methanocyclopenta[1][1,3,6,9,11,2,10]pentaoxadiphosphacyclotetradecin-7-yl]-1,9-dihydro-6H-purin-6-one], over 25 µM; to `Nc1nc2c(ncn2[C@@H]2O[C@@H]3COP(=O)(O)O[C@H]4C[C@H](Nc5ncnc6ccnn56)C[C@@H]4COP(=O)(O)O[C@@H]2[C@@H]3O)c(=O)[nH]1` [Compound I-36, 2-amino-9-[(5R,7R,8R,12aR,14R,15aS,16R)-2,10,16-trihydroxy-2,10-dioxido-14-(pyrazolo[1,5-a][1,3,5]triazin-4-ylamino)decahydro-5,8-methanocyclopenta[1][1,3,6,9,11,2,10]pentaoxadiphosphacyclotetradecin-7-yl]-1,9-dihydro-6H-purin-6-one], 10 to 25 µM.

Take `Cn1ccnc(N[C@@H]2C[C@@H]3COP(=O)(O)O[C@@H]4[C@H](O)[C@@H](COP(=O)(O)O[C@H]3C2)O[C@H]4n2cnc3c(=O)[nH]c(N)nc32)c1=O` [Compound I-29, 2-amino-9-{(5R,7R,8R,12aR,14R,15aS,16R)-2,10,16-trihydroxy-14-[(4-methyl-3-oxo-3,4-dihydropyrazin-2-yl)amino]-2,10-dioxidodecahydro-5,8-methanocyclopenta[1][1,3,6,9,11,2,10]pentaoxadiphosphacyclotetradecin-7-yl}-1,9-dihydro-6H-purin-6-one]: the EC50 was over 25 µM.

In the case of `Nc1nc2c(nnn2[C@@H]2O[C@@H]3COP(=O)(S)O[C@H]4C[C@H](Oc5ccncn5)C[C@@H]4COP(=O)(S)O[C@@H]2[C@@H]3O)c(=O)[nH]1` (stereo partly drawn) [Compound I-30a, 5-amino-3-[(2S,5R,7R,8R,10S,12aR,14R,15aS,16R)-16-hydroxy-2,10-dioxido-14-(pyrimidin-4-yloxy)-2,10-disulfanyldecahydro-5,8-methanocyclopenta [1][1,3,6,9,11,2,10]pentaoxadiphosphacyclotetradecin-7-yl]-3,6-dihydro-7H-[1,2,3]triazolo[4,5-d]pyrimidin-7-one], the half-maximal effective concentration (EC50) was 1 to 10 µM.

With `Nc1nc2c(ncn2[C@@H]2O[C@@H]3COP(=O)(S)O[C@@H]4[C@@H](COP(=O)(S)O[C@@H]2[C@@H]3O)C[C@@H](Nc2ccncn2)[C@@H]4F)c(=O)[nH]1` (stereo partly drawn) [Compound I-20a, 2-amino-9-[(2S,5R,7R,8R,10S,12aR,14R,15S,15aR,16R)-15-fluoro-16-hydroxy-2,10-dioxido-14-(pyrimidin-4-ylamino)-2,10-disulfanyldecahydro-5,8-methanocyclopenta[1][1,3,6,9,11,2,10]pentaoxadiphosphacyclotetradecin-7-yl]-1,9-dihydro-6H-purin-6-one], the EC50 was 1 to 10 µM.

For `Cc1nccc(N[C@@H]2C[C@@H]3COP(=O)(O)O[C@@H]4[C@H](O)[C@@H](COP(=O)(O)O[C@H]3C2)O[C@H]4n2cnc3c(=O)[nH]c(N)nc32)n1` [Compound I-28, 2-amino-9-{(5R,7R,8R,12aR,14R,15aS,16R)-2,10,16-trihydroxy-14-[(2-methylpyrimidin-4-yl)amino]-2,10-dioxidodecahydro-5,8-methanocyclopenta[1][1,3,6,9,11,2,10]pentaoxadiphosphacyclotetradecin-7-yl}-1,9-dihydro-6H-purin-6-one], the EC50 lay within 10 to 25 µM. Still for that read-out and setting: for `N#Cc1cncnc1N[C@@H]1C[C@@H]2COP(=O)(S)O[C@@H]3[C@H](O)[C@@H](COP(=O)(S)O[C@H]2C1)O[C@H]3n1cnc2c(=O)[nH]c(N)nc21` (single isomer, unassigned) [Compound I-4a] the value was over 25 µM; for `Nc1nc2c(ncn2[C@@H]2O[C@@H]3COP(=O)(O)O[C@H]4C[C@H](Nc5ccncn5)C[C@@H]4COP(=O)(O)O[C@@H]2[C@@H]3O)c(=O)[nH]1` [Compound I-6, 2-amino-9-[(5R,7R,8R,12aR,14R,15aS,16R)-2,10,16-trihydroxy-2,10-dioxido-14-(pyrimidin-4-ylamino)decahydro-5,8-methanocyclopenta[1][1,3,6,9,11,2,10]pentaoxadiphosphacyclotetradecin-7-yl]-1,9-dihydro-6H-purin-6-one], 10 to 25 µM.

Staying with this test, now noted: Lucia luciferase signal induction, 20 hours at 37° C., read-out: Cellular THP 1 EC50.
As to `Cn1cnc2c(c(F)cn2[C@@H]2O[C@@H]3COP(=O)(S)O[C@H]4C[C@H](Oc5ccncn5)C[C@@H]4COP(=O)(S)O[C@@H]2[C@@H]3O)c1=O` (single isomer, unassigned) [Compound I-12b], the EC50 is under 1 µM. Still for that read-out and setting: for `Nc1nc2c(nnn2[C@@H]2C[C@@H]3COP(=O)(S)O[C@@H]4[C@@H](COP(=O)(S)O[C@@H]2C3)C[C@@H](Nc2ccncn2)[C@@H]4F)c(=O)[nH]1` (single isomer, unassigned) [Compound I-25b] the value was over 25 µM; for `Nc1nc2c(ncn2[C@@H]2O[C@@H]3COP(=O)(O)O[C@H]4C[C@H](Nc5ccncn5)C[C@@H]4COP(=O)(S)O[C@@H]2[C@@H]3O)c(=O)[nH]1` (single isomer, unassigned) [Compound I-19b], over 25 µM. Same read-out and setting: for `Nc1nc2c(ncn2[C@@H]2O[C@@H]3COP(=O)(S)O[C@H]4C[C@H](Oc5ccncn5)C[C@@H]4COP(=O)(S)O[C@@H]2[C@@H]3O)c(=O)[nH]1` (single isomer, unassigned) [Compound I-5c] the value was 1 to 10 µM; for `Nc1nc2c(ncn2[C@@H]2O[C@@H]3COP(=O)(S)O[C@@H]4[C@@H](COP(=O)(S)O[C@@H]2[C@@H]3O)C[C@@H](Nc2ccncn2)[C@H]4F)c(=O)[nH]1` (single isomer, unassigned) [Compound I-35d], 10 to 25 µM; for `O=c1[nH]cnc2c1ncn2[C@@H]1O[C@@H]2COP(=O)(S)O[C@H]3C[C@H](Oc4ccncn4)C[C@@H]3COP(=O)(S)O[C@@H]1[C@@H]2O` (single isomer, unassigned) [Compound I-9b], 1 to 10 µM. For the compound `O=c1[nH]cnc2c1ncn2[C@@H]1O[C@@H]2COP(=O)(S)O[C@H]3C[C@H](Oc4ccncn4)C[C@@H]3COP(=O)(S)O[C@@H]1[C@@H]2O` (single isomer, unassigned) [Compound I-9d], the half-maximal effective concentration (EC50) was in the range of 10 to 25 µM.

As to `O=c1[nH]cnc2c1ncn2[C@@H]1O[C@@H]2COP(=O)(S)O[C@H]3C[C@H](Oc4ccncn4)C[C@@H]3COP(=O)(S)O[C@@H]1[C@@H]2O` (single isomer, unassigned) [Compound I-9a], the EC50 was 10 to 25 µM.

On to `Nc1nc2c(ncn2[C@@H]2O[C@@H]3COP(=O)(S)O[C@H]4C[C@H](Oc5ccncn5)C[C@@H]4COP(=O)(S)O[C@@H]2[C@@H]3OCC(F)(F)F)c(=O)[nH]1` (single isomer, unassigned) [Compound I-32b], for which the EC50 was under 1 µM.

For the compound `Nc1nc2c(ncn2[C@@H]2O[C@@H]3COP(=O)(O)O[C@H]4C[C@H](Oc5ccncn5)C[C@@H]4COP(=O)(S)O[C@@H]2[C@@H]3O)c(=O)[nH]1` (single isomer, unassigned) [Compound I-23a], the EC50 is over 25 µM. On the same count and under the same terms, to `Nc1nc2c(ncn2[C@@H]2O[C@@H]3COP(=O)(S)O[C@@H]4[C@@H](COP(=O)(S)O[C@@H]2[C@@H]3O)C[C@@H](Nc2ccncn2)[C@H]4F)c(=O)[nH]1` (single isomer, unassigned) [Compound I-35c] belongs over 25 µM; to `Nc1nc2c(ncn2[C@@H]2O[C@@H]3COP(=O)(O)O[C@H]4C[C@H](Nc5ccncn5)C[C@@H]4COP(=O)(S)O[C@@H]2[C@@H]3O)c(=O)[nH]1` (single isomer, unassigned) [Compound I-19a], 1 to 10 µM; to `Nc1nc2c(ncn2[C@@H]2O[C@@H]3COP(=O)(S)O[C@H]4C[C@H](Oc5ccncn5)C[C@@H]4COP(=O)(S)O[C@@H]2C3)c(=O)[nH]1` (single isomer, unassigned) [I-lb], 1 to 10 µM. The same measure, in the same setting: for `O=c1[nH]cnc2c1c(F)cn2[C@@H]1O[C@@H]2COP(=O)(S)O[C@H]3C[C@H](Oc4ccncn4)C[C@@H]3COP(=O)(S)O[C@@H]1[C@@H]2O` (single isomer, unassigned) [Compound I-3b] the value was 10 to 25 µM. Still for that read-out and setting: for `Nc1nc2c(ncn2[C@@H]2O[C@@H]3COP(=O)(S)O[C@H]4C[C@H](Nc5cc(=O)[nH]cn5)C[C@@H]4COP(=O)(S)O[C@@H]2[C@@H]3O)c(=O)[nH]1` (single isomer, unassigned) [Compound I-41b] the value was 10 to 25 µM; for `Nc1nc2c(ncn2[C@@H]2O[C@@H]3COP(=O)(O)O[C@H]4C[C@H](Oc5ccncn5)C[C@@H]4COP(=O)(S)O[C@@H]2[C@@H]3O)c(=O)[nH]1` (single isomer, unassigned) [Compound I-23b], 1 to 10 µM. Take `Cn1cnc2c(c(F)cn2[C@@H]2O[C@@H]3COP(=O)(S)O[C@H]4C[C@H](Oc5ccncn5)C[C@@H]4COP(=O)(S)O[C@@H]2[C@@H]3O)c1=O` (single isomer, unassigned) [Compound I-12a]: the EC50 is over 25 µM.

As usually defined, the EC50 is the concentration needed to bring the measured effect to its halfway point.
